Measured values as given in patent US12649725B2 (Worcester Polytechnic Institute, priority 2020, dated 2026).

Tests used:
L5178Y cells [1] = assay: Cytotoxicity assay (CellTiter-Glo) in L5178Y cells; details: read-out: Chromenone cytotoxicity IC50, L5178Y, 48 hours post drug incubation, cell viability by CellTiter-Glo, triplicate
[2] = Cytotoxicity assay (CellTiter-Glo) in Jurkat cells; details: human, Jurkat cells
Jurkat cells = assay: Cytotoxicity assay (CellTiter-Glo) in Jurkat cells; details: cytotoxicity screening in Jurkat cell lines, FIG. 20
L5178Y cells [3] = tested on: L5178Y cells
HL60 cells [4] = tested on: HL60 cells
HL60 cells [5] = assay: Cytotoxicity assay (CellTiter-Glo) in HL60 cells; details: read-out: Chromenone cytotoxicity IC50, HL60, 48 hours post drug incubation, cell viability by CellTiter-Glo, triplicate
[6] = Cytotoxicity assay (CellTiter-Glo) in L5178Y cells; details: mouse
[7] = Cytotoxicity assay (CellTiter-Glo) in HL60 cells; details: human, Chromenone cytotoxicity IC50, HL60, HL60 cells, 48 hours post drug incubation, cell viability by CellTiter-Glo, triplicate

**Q.** With `COC(=O)C(C)(C)c1cc(=O)c2c(O)ccc(-c3ccc(O)c4c(=O)cc(C(C)(C)C(=O)OC)oc34)c2o1` [Compound 28c, Dimethyl 2,2′-(5,5′-Dihydroxy-4,4′-dioxo-4H,4′H-[8,8′-bichromene]-2,2′-diyl)bis(2-methylpropanoate)] as the molecule, how does the IC50 (L5178Y cells [1]) read?
**A.** 39 ± 1.1 µM

**Q.** And the IC50 at 48 h [2]?
**A.** 39 ± 1.1 µM

**Q.** With `O=c1cc(C2CCCO2)oc2c(-c3ccc(O)c4c(=O)cc(C5CCCO5)oc34)ccc(O)c12` (centres unmarked) [Compound 28e, 5,5′-Dihydroxy-2,2′-bis(tetrahydrofuran-2-yl)-4H,4′H-[8,8′-bichromene]-4,4′-dione] as the molecule, how does the IC50 at 48 h [2] read?
**A.** 39 ± 1.1 µM

**Q.** Which results are given for “5-Methoxychromone-2-tetrahydrofuran Dimer [Compound 35e]”?
**A.** IC50 (KB cells): > 50 µM; Cytotoxicity in Jurkat screening (in words) (Jurkat cells): highest levels of cytotoxicity; IC50 (L5178Y cells [3]): 39 ± 1.1 µM; IC50 (HL60 cells [4]): > 50 µM

**Q.** With `COC(=O)C(C)(C)c1cc(=O)c2c(OC)ccc(-c3ccc(OC)c4c(=O)cc(C(C)(C)C(=O)OC)oc34)c2o1` [Compound 39c, Dimethyl 2,2′-(5,5′-Dimethoxy-4,4′-dioxo-4H,4′H-[8,8′-bichromene]-2,2′-diyl)bis(2-methylpropanoate)] as the molecule, how does the IC50 (HL60 cells [5]) read?
**A.** 39 ± 1.1 µM

**Q.** What about the IC50 at 48 h [2] of the same molecule?
**A.** 39 ± 1.1 µM

**Q.** Which results are given for `COC(=O)C(C)(C)c1cc(=O)c2c(OC)c(-c3ccc4oc(C(C)(C)C(=O)OC)cc(=O)c4c3OC)ccc2o1` [Compound 35c, Dimethyl 2,2′-(5,5′-Dimethoxy-4,4′-dioxo-4H,4′H-[6,6′-bichromene]-2,2′-diyl)bis(2-methylpropanoate)]?
**A.** IC50 at 48 h ([6]; Chromenone cytotoxicity IC50, L5178Y, 48 hours post drug incubation, cell viability by CellTiter-Glo, triplicate): 39 ± 1.1 µM; IC50 at 48 h [7]: 39 ± 1.1 µM; IC50 at 48 h [2]: 39 ± 1.1 µM

**Q.** Which IC50 at 48 h [7] does the source give for `COc1ccc(-c2ccc(OC)c3c(=O)c(C(C)=O)c(C)oc23)c2oc(C)c(C(C)=O)c(=O)c12` [Compound 42, 3,3′-Diacetyl-5,5′-dimethoxy-2,2′-dimethyl-4H,4′H-[8,8′-bichromene]-4,4′-dione] here?
**A.** 39 ± 1.1 µM

**Q.** For `COc1ccc(-c2ccc(OC)c3c(=O)c(C(C)=O)c([C@@H](OC(C)=O)C(C)C)oc23)c2oc([C@@H](OC(C)=O)C(C)C)c(C(C)=O)c(=O)c12` [Compound 48c], which IC50 at 48 h [6] is on record?
**A.** 39 ± 1.1 µM

Like-named read-outs stand apart in the source and are kept apart here.
